# Test results taken from patent publication US20190351076A1, “TUMOR CELL XENOGRAFT MODEL IN ZEBRAFISH, AND METHODS OF CONSTRUCTING AND USING THE SAME” (NANJING EMORY BIOTECHNOLOGY CO., LTD., priority 2017, published 2019).
# Test system: HCC827
# Assay: Human lung cancer cell line xenograft model in zebrafish (HCC827)
# Type: in vivo
# Conditions: 50 μM and 5 μM soak for three days, day 7 after injection
smiles,measurement,value
COc1cc2ncnc(Nc3ccc(F)c(Cl)c3)c2cc1OCCCN1CCOCC1 [gefitinib],sensitivity of lung cancer cell line to gefitinib,sensitive
